# Test system: MOLM14 cells
# Amino acid sequences for entries named in this document (tags omitted). Chains listed by the source or under a name are the forms on record and can include a tag or linker. Residues count along the entry.
# UniProt O00255, 1-610 with tags or gaps T541A: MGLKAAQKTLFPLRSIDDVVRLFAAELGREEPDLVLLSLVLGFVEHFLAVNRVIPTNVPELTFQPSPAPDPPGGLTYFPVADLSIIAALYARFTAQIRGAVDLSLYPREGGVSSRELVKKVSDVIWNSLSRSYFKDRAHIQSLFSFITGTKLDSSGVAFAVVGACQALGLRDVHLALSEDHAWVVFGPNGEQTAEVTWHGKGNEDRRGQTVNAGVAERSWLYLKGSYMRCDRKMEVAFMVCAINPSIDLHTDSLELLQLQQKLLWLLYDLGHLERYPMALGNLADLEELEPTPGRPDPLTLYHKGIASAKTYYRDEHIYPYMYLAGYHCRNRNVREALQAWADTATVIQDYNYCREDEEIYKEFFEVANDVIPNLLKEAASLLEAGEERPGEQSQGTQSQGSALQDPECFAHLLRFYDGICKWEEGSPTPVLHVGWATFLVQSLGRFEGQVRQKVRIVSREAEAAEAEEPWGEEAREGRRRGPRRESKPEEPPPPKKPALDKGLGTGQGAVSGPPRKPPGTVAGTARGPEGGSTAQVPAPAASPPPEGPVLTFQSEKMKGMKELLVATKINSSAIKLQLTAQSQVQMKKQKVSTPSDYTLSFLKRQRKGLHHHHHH
# Test: Proliferation assay, spheroid-like growth, MOLM14 (MLL-AF9 rearranged)
# Conditions: read-out: spheroid assay_OneTime MOLM14 IC50, 8 days, confluence as measure of spheroid size
# Experimental: (§1) The anti-proliferative effect of menin/MLL protein/protein interaction inhibitor test compounds was assessed in human leukemia cell lines. The cell line MOLM14 harbors a MLL translocation and expresses the MLL fusion proteins MLL-AF9, respectively, as well as the wildtype protein from the second allele. […] KO-52 was used as a control cell line containing two MLL (KMT2A) wildtype alleles in order to exclude compounds that display general cytotoxic effects.
# MOLM14 cells were cultured in RPMI-1640 (Sigma Aldrich) supplemented with 10% heat-inactivated fetal bovine serum (HyClone), 2 mM L-glutamine (Sigma Aldrich) and 50 μg/ml gentamycin (Gibco). KO-52 cell lines were propagated in alpha-MEM (Sigma Aldrich) supplemented with 20% heat-inactivated fetal bovine serum (HyClone), 2 mM L-glutamine (Sigma Aldrich) and 50 μg/ml gentamycin (Gibco).
# In order to assess the anti-proliferative effects, 200 MOLM14 cells, or 300 KO-52 cells were seeded in 200 μl media per well in 96-well round bottom, ultra-low attachment plates (Costar, catalogue number 7007). Cell seeding numbers were chosen based on growth curves to ensure linear growth throughout the experiment. Test compounds were added at different concentrations and the DMSO content was normalized to 0.3%. Cells were incubated for 8 days at 37° C. and 5% CO2. Spheroid like growth was measured in real-time by live-cell imaging (IncuCyteZOOM, Essenbio, 4× objective) acquiring images at day 8. Confluence (%) as a measure of spheroid size was determined using an integrated analysis tool.
# In order to determine the effect of the test compounds over time, the confluence in each well as a measure of spheroid size, was calculated. Confluence of the highest dose of a reference compound was used as baseline for the LC (Low control) and the confluence of DMSO treated cells was used as 0% cytotoxicity (High Control, HC).
# Absolute IC50 values were calculated as percent change in confluence as follows:
# LC=Low Control: cells treated with e.g. 1 μM of the cytotoxic agent staurosporin, or e.g. cells treated with a high concentration of an alternative reference compound
# GraphPad Prism (version 7.00) was used to calculate the IC50. Dose-response equation was used for the plot of % Effect vs Log 10 compound concentration with a variable slope and fixing the maximum to 100% and the minimum to 0%.
row,Structure (SMILES),IC50 [µM]
1,CC(=O)Nc1cccc(N[C@H]2C[C@@H]([C@@H](C(C)C)N3CC4(CCN(c5ncnnc5Oc5ccc(F)cc5-c5cncnc5C5CC5)C4)C3)C2)n1,0.008
2,Cc1cc(C2CC2)c(-c2cc(F)ccc2Oc2nncnc2N2CCC3(C2)CN([C@@H](C(C)C)[C@H]2C[C@@H](N4C[C@@H]5[C@H](C4)[C@H]5C(=O)N(C)C)C2)C3)nn1,0.021
3,CC(C)[C@H]([C@H]1C[C@@H](Nc2ccnc(NS(C)(=O)=O)c2)C1)N1CC2(CCN(c3ncnnc3Oc3ccc(F)cc3-c3cncnc3C3CC3)C2)C1,0.13
4,CC(C)[C@@H]([C@H]1C[C@]2(CCC(=O)N2)C1)N1CC2(CCN(c3ncnnc3Oc3ccc(F)cc3-c3cncnc3C3CC3)C2)C1,0.12

# Test system: KO-52 cells
# Test: Proliferation assay, spheroid-like growth, KO-52 (MLL wildtype control cell line)
# Conditions: read-out: spheroid assay_OneTime KO-52 IC50; KO-52 control cells, 8 days, confluence as measure of spheroid size
# Experimental: as §1
# MOLM14 cells were cultured in RPMI-1640 (Sigma Aldrich) supplemented with 10% heat-inactivated fetal bovine serum (HyClone), 2 mM L-glutamine (Sigma Aldrich) and 50 μg/ml gentamycin (Gibco). […]
# In order to assess the anti-proliferative effects, 200 MOLM14 cells, or 300 KO-52 cells were seeded in 200 μl media per well in 96-well round bottom, ultra-low attachment plates (Costar, catalogue number 7007). […] Spheroid like growth was measured in real-time by live-cell imaging (IncuCyteZOOM, Essenbio, 4× objective) acquiring images at day 8. Confluence (%) as a measure of spheroid size was determined using an integrated analysis tool.
# In order to determine the effect of the test compounds over time, the confluence in each well as a measure of spheroid size, was calculated. […]
# Absolute IC50 values were calculated as percent change in confluence as follows: […]
row,Structure (SMILES),IC50 [µM]
1,CC(C)[C@@H]([C@H]1C[C@]2(CCC(=O)N2)C1)N1CC2(CCN(c3ncnnc3Oc3ccc(F)cc3-c3cncnc3C3CC3)C2)C1,5.87

# Target: menin/MLL (terbium chelate-labeled menin, FITC-MBM1 peptide) (Homo sapiens, UniProt O00255, T541A)
# Test: Menin/MLL homogenous time-resolved fluorescence (HTRF) assay
# Conditions: read-out: HTRF-30 min incubation IC50
# Experimental: 1) Menin/MLL Homogenous Time-Resolved Fluorescence (HTRF) Assay
# To an untreated, white 384-well microtiter plate was added 40 nL 200× test compound in DMSO and 4 μL 2× terbium chelate-labeled menin (vide infra for preparation) in assay buffer (40 mM Tris.HCl, pH 7.5, 50 mM NaCl, 1 mM DTT (dithiothreitol) and 0.05% Pluronic F-127). After incubation of test compound and terbium chelate-labeled menin for 30 min at ambient temperature, 4 μL 2× FITC-MBM1 peptide (FITC-β-alanine-SARWRFPARPGT-NH2 (SEQ ID NO: 3)) (“FITC” means fluorescein isothiocyanate) in assay buffer was added, the microtiter plate centrifuged at 1000 rpm for 1 min and the assay mixtures incubated for 15 min at ambient temperature. The relative amount of menin FITC-MBM1 complex present in an assay mixture is determined by measuring the homogenous time-resolved fluorescence (HTRF) of the terbium/FITC donor/acceptor fluorophore pair using an EnVision microplate reader (ex. 337 nm/terbium em. 490 nm/FITC em. 520 nm) at ambient temperature. The degree of fluorescence resonance energy transfer (the HTRF value) is expressed as the ratio of the fluorescence emission intensities of the FITC and terbium fluorophores (F^em 520 nm/F^em 490 nm). The final concentrations of reagents in the binding assay are 200 pM terbium chelate-labeled menin, 75 nM FITC-MBM1 peptide and 0.5% DMSO in assay buffer. Dose-response titrations of test compounds are conducted using an 11 point, four-fold serial dilution scheme, starting typically at 10 μM.
# Compound potencies were determined by first calculating % inhibition at each compound concentration according to equation 1:
# % inhibition=((HC−LC)−(HTRF^compound−LC))/(HC−LC))*100 (Eqn 1)
# Where LC and HC are the HTRF values of the assay in the presence or absence of a saturating concentration of a compound that competes with FITC-MBM1 for binding to menin, and HTRF^compound is the measured HTRF value in the presence of the test compound. HC and LC HTRF values represent an average of at least 10 replicates per plate.
# % inhibition=Bottom+(Top−Bottom)/(1+10^((logIC50−log[cmpd])*h)) (Eqn 2)
# Where Bottom and Top are the lower and upper asymptotes of the dose-response curve, respectively, IC50 is the concentration of compound that yields 50% inhibition of signal and h is the Hill coefficient. IC50 values below 0.1 nM in the HTRF assay were reported as 0.1 nM in the Table below (detection limit).
# Preparation of Terbium cryptate labeling of Menin: Menin (a.a 1-610-6xhis tag (“6xhis tag” disclosed as SEQ ID NO: 2), 2.3 mg/mL in 20 mM Hepes (2-[4-(2-Hydroxyethyl)-1-piperazinyl]ethane sulfonic acid), 80 mM NaCl, 5 mM DTT (Dithiothreitol), pH 7.5) was labeled with terbium cryptate as follows. 200 μg of Menin was buffer exchanged into 1× Hepes buffer. 6.67 μM Menin was incubated with 8-fold molar excess NHS (N-hydroxysuccinimide)-terbium cryptate for 40 minutes at room temperature. Half of the labeled protein was purified away from free label by running the reaction over a NAP5 column with elution buffer (0.1 M Hepes, pH 7+0.1% BSA (bovine serum albumin)). The other half was eluted with 0.1 M phosphate buffered saline (PBS), pH7. 400 μl of eluent was collected for each, aliquoted and frozen at −80° C. The final concentration of terbium-labeled Menin protein was 115 μg/mL in Hepes buffer and 85 μg/mL in PBS buffer, respectively.
row,Structure (SMILES),IC50 [µM]
1,CC(=O)Nc1cccc(N[C@H]2C[C@@H]([C@@H](C(C)C)N3CC4(CCN(c5ncnnc5Oc5ccc(F)cc5-c5cncnc5C5CC5)C4)C3)C2)n1,0.00014
2,Cc1cc(C2CC2)c(-c2cc(F)ccc2Oc2nncnc2N2CCC3(C2)CN([C@@H](C(C)C)[C@H]2C[C@@H](N4C[C@@H]5[C@H](C4)[C@H]5C(=O)N(C)C)C2)C3)nn1,0.00026
3,CC(C)[C@H]([C@H]1C[C@@H](Nc2ccnc(NS(C)(=O)=O)c2)C1)N1CC2(CCN(c3ncnnc3Oc3ccc(F)cc3-c3cncnc3C3CC3)C2)C1,0.00013
4,C[C@H]([C@H]1C[C@@H](N)C1)N1CC2(CCN(c3ncnnc3Oc3ccc(F)cc3-c3cncnc3C3CC3)C2)C1,0.0137
5,CC(C)[C@@H]([C@H]1C[C@]2(CCC(=O)N2)C1)N1CC2(CCN(c3ncnnc3Oc3ccc(F)cc3-c3cncnc3C3CC3)C2)C1,0.0002
